Here are results for 1 compound from ChEMBL document CHEMBL1142528 (J Med Chem, 2008).

By UniProt entry, the sequences of proteins in these tests, tags left out.
UniProt P28223, whole entry: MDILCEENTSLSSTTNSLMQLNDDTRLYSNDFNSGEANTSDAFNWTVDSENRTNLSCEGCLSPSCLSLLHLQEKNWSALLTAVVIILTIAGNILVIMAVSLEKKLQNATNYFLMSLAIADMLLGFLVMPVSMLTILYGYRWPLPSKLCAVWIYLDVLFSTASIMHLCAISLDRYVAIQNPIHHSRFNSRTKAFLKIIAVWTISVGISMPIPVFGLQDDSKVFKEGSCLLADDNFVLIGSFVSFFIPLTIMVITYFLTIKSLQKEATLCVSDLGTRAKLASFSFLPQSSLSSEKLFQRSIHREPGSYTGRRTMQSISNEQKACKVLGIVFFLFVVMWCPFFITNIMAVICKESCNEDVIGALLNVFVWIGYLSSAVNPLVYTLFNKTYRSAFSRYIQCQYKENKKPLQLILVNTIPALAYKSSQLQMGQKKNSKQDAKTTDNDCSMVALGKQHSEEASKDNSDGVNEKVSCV

For this assay, the target named is 5-hydroxytryptamine receptor 2A (Homo sapiens, UniProt P28223). The experiment in a line: Displacement of [3H]ketanserin from 5HT2A receptor expressed in NIH3T3 cells. It is filed as cell-based. (In general: In a radioligand displacement assay an active substance lowers the binding of a labelled ligand.)

The Ki is the dissociation constant of the complex between target and ligand, obtained from inhibition or displacement. Higher therefore signals weaker binding.

Regarding `CCCCCCc1ccc2c(c1)Cc1cc(OC)ccc1C2CN` (stereo unspecified), the Ki worked out at 43 nM.
